In patent US4695545A, “Culture and process for producing A41030 antibiotics” (Eli Lilly and Company, priority 1984, dated 1987) one finds MIC data, which are given here for two substances.

Experiment [1] deals with Peptostreptococcus intermedius. Put plainly: MIC anaerobic bacteria, agar-dilution. In kind it is cell-based. The settings on record: Peptostreptococcus intermedius 1264.
For experiment [2], the system named is Staphylococcus aureus. Kind of experiment: MIC aerobic bacteria, standard agar-dilution assay. The settings on record: Staphylococcus aureus S13E, 24 hours. The format is cell-based.

On to A41030 factor C, for which the MIC in experiment [1] and in experiment [2] was 0.5 µg/mL throughout.

A41030 factor G came in with an MIC in experiment [2] of 1 µg/mL.

As usually defined, the MIC is the smallest concentration in the dilution series that meets the test's criterion for growth inhibition. Lower therefore signals greater potency.
